Experiments:
[1] = Pharmacokinetics after a single s.c. dose in C57BL/6J mice; assay type: in vivo, mouse; conditions: single s.c. 10 nmol/kg
Method: PK parameters following a single subcutaneous (s.c.) administration of ALT-801 or semaglutide (both stock concentrations at 10 nmol/kg) were evaluated in male C57BL6/J mice at The Jackson Laboratory-JAX West (Sacramento, CA). Both compounds were formulated at 0.02 mg/mL in 50 mM phosphate buffer and 0.05% Tween 80 at pH ~ 8. The dosing volume was approximately 2 mL/kg. Blood samples (~ 200 µL) were collected at 1, 4, 8, 24, 48, 72, 96, and 120 h post-dosing (n = 4 per time point). Each mouse was bled at two time points and the second time point was a terminal bleed. Plasma concentrations of ALT-801 and semaglutide were determined using liquid chromatography coupled with tandem mass spectrometry with a limit of quantitation of 1 and 2 ng/mL for semaglutide and ALT-801, respectively. Non-compartmental PK analysis using WinNonlin was performed by using the mean concentrations at each sampling time point to report the Cmax, Tmax, the area under the plasma concentration curve from time zero to infinity (AUC0–inf), T1/2, and the mean residence time (MRT).

DIO-NASH mouse model = assay: Biopsy-confirmed DIO-NASH (AMLN diet) mouse model, 12 weeks of daily treatment; assay type: in vivo
Method: ALT-801 was evaluated for its metabolic and anti-fibrotic effects during 12 weeks of treatment in the well-documented Amylin Liver NASH (AMLN) DIO-NASH mouse model[22],[44] at Gubra ApS. Mice had ad libitum access to tap water and a diet high in fat (40%, containing 18% trans-fat; 40% carbohydrates, 20% fructose) and 2% cholesterol (AMLN diet; D09100301, Research Diets, New Brunswick, NJ). Semaglutide (GLP-1R agonist) and elafibranor (peroxisome proliferator-activated receptor [PPAR]-α/δ agonist) were included as comparators to assess the effects of added GCGR agonism, and a previously observed modest antifibrotic effect in this assay, respectively.
All experiments were conducted in accordance with Gubra Aps’ bioethical guidelines, which were fully compliant with internationally accepted principles for the care and use of laboratory animals. The Danish Animal Experiments Inspectorate approved all experiments which were conducted using internationally accepted principles for the use of laboratory animals under the personal license #2013-15-2934-00784. We also confirm that the study was carried out in compliance with the ARRIVE guidelines. Sixty male, 5-wk old, wild-type C57BL/6J mice (JanVier Labs, France) were group housed in a controlled environment (12 h light–dark cycle, 21 ± 2 °C, 50 ± 10% humidity) and fed the AMLN diet high in trans-fat, cholesterol, and fructose[46] ad libitum for 32 weeks to induce obesity and the NASH phenotype.
After 29 weeks of diet induction (week-3 relative to start of treatment) a pre-treatment liver biopsy was performed as described in detail previously[44] to select animals for stratification and randomization based on histological assessment. Liver histology was scored using the NAS and fibrosis stage criteria defined by the NASH Clinical Research Network Pathology Committee[47] and only those animals with confirmed steatosis (score ≥ 2) and fibrosis (stage ≥ 1) were selected for stratification and randomization. A stratified randomization into treatment groups was performed for the biopsy-proven DIO-NASH mice according to liver collagen type 1 alpha 1 (Col1A1) quantification at week-3. Test animals (n = 12/group) were then single housed and treated once daily for a period of 12 weeks while maintaining the AMLN diet. Treatment groups were vehicle (0.05% Tween 80 in 50 mM Na2HPO4, pH 8, s.c.), 10 nmol/kg semaglutide (0.02 mg/mL, s.c.), 5 nmol/kg ALT-801 (0.02 mg/mL, s.c.), 10 nmol/kg ALT-801 (0.02 mg/mL, s.c.), or 78 μmol/kg elafibranor (6 mg/mL in 0.5% carboxymethyl cellulose, oral). ALT-801 and semaglutide were synthesized (≥ 95% purity) and supplied as acetate salts by CS Bio Co. (Menlo Park, CA). Elafibranor was obtained from Sunshine Chemical (Wuhan, China). After a total of 12 weeks on treatment, the animals were euthanized, and liver tissue and terminal plasma were collected for histological and biochemical analysis.
Paraffin embedded slides of biopsied baseline liver tissue (50 to 100 mg) and terminal samples (approximately 200 mg) were prepared to assess hepatic morphology including steatosis and fibrosis by staining with hematoxylin and eosin (H&E) and picrosirius red, respectively. Immunohistochemical staining for Col1A1 (baseline biopsy and terminal liver) and galectin-3 (Gal-3) (terminal samples only) was also performed to assess hepatic fibrosis and inflammation, respectively. Quantitative assessment of immunoreactivity was performed via image analysis using Visiomorph software (Visiopharm, Denmark). Blinded liver histology was scored using NAS criteria[47] and fibrosis stage.
Terminal blood samples were collected in heparinized tubes and plasma was separated and stored at − 80 °C until analysis. Triglycerides (TG), total cholesterol (TC), alanine aminotransferase (ALT), and aspartate aminotransferase (AST) plasma levels were measured using commercial kits (Roche Diagnostics, Germany) on a Cobas C-501 auto analyzer according to manufacturer’s instructions. […]

db/db mouse model = conditions: diabetic db/db mouse model, compared with an equivalent dose of semaglutide; cited from earlier work
From the text: Similarly, another study compared body weight, food consumption, and total energy expenditure outcomes for GLP-1R/GCGR dual agonist and a GLP-1R agonist in DIO mice and DIO monkeys.

serum albumin = conditions: estimated; near quantitative but transient binding; cited from earlier work
From the text: The chemical structure of ALT-801 utilizes a stabilized peptide structure including sequence elements of both GLP-1 and glucagon, coupled with EuPort™ modification, a proprietary glycolipid moiety designed to achieve a prolonged duration of action consistent with weekly dosing. […] In addition, the surfactant-like features of the EuPort™ domain lead to formation of micelles, which, upon s.c. administration, sl ...

[2] = 10 nmol/kg s.c. daily, 12 weeks
[3] = 5 and 10 nmol/kg s.c. daily, 12 weeks, p < 0.0001
[4] = 5 and 10 nmol/kg s.c. daily, 12 weeks, p < 0.001
[5] = 5 and 10 nmol/kg s.c. daily, 12 weeks, whole liver basis, histomorphometry

CC[C@H](C)[C@H](NC(=O)[C@H](Cc1ccccc1)NC(=O)[C@H](CCC(=O)O)NC(=O)[C@@H]1CCCCNC(=O)CC[C@H](NC(=O)[C@H](CC(=O)O)NC(=O)[C@H](CC(C)C)NC(=O)[C@H](Cc2ccc(O)cc2)NC(=O)[C@H](CCCCN)NC(=O)[C@H](CO)NC(=O)[C@H](Cc2ccc(O)cc2)NC(=O)[C@H](CC(=O)O)NC(=O)[C@H](CO)NC(=O)[C@@H](NC(=O)[C@H](Cc2ccccc2)NC(=O)[C@@H](NC(=O)CNC(=O)[C@H](CCC(N)=O)NC(=O)C(C)(C)NC(=O)[C@@H](N)Cc2c[nH]cn2)[C@@H](C)O)[C@@H](C)O)C(=O)N[C@@H](CCCCNC(=O)[C@H]2O[C@@H](OCCCCCCCCCCCCCCCCCC(=O)O)[C@H](O)[C@@H](O)[C@@H]2O)C(=O)N[C@@H](C)C(=O)N[C@@H](C)C(=O)N1)C(=O)N[C@@H](CCC(N)=O)C(=O)N[C@@H](Cc1c[nH]c2ccccc12)C(=O)N[C@@H](CC(C)C)C(=O)N[C@@H](CC(C)C)C(=O)N[C@@H](CCC(N)=O)C(=O)N[C@H](C(N)=O)[C@@H](C)O [ALT-801]
Cmax as % of the value for semaglutide ([1]; mice, equimolar doses): 50%
AUC as % of the value for semaglutide ([1]; mice, equimolar doses, AUC0-inf): > 86%
AUC(0-inf) ([1]; mouse, in vivo, sc, male C57BL/6J mice, plasma, LC-MS/MS, non-compartmental analysis of mean concentrations (n = 4 per time point)): 2.69 µg·h/mL
Animals with reduction in fibrosis stage of 1 or greater compared to the start of treatment (DIO-NASH mouse model; 5 nmol/kg s.c. daily, 12 weeks): 64%
Animals with reduction in fibrosis stage of 1 or greater compared to the start of treatment (DIO-NASH mouse model; [2]): 55%
Plasma ALT levels (DIO-NASH mouse model; [2]): returned to the normal range
Reduction in NAS achieved by all animals (DIO-NASH mouse model; [2]): at least 3
Body weight of the group (DIO-NASH mouse model; 10 nmol/kg s.c. daily, normal body weight range for this mouse strain, then maintained): ~ 30 g
Plasma TG compared to vehicle control and semaglutide groups (DIO-NASH mouse model; 5 and 10 nmol/kg s.c. daily, 12 weeks): lower
Liver weight compared to vehicle control (DIO-NASH mouse model; [3]): significantly decreased
Total liver TC compared to vehicle control (DIO-NASH mouse model; [3]): significantly lower
Total liver TG compared to vehicle control (DIO-NASH mouse model; [3]): significantly lower
Terminal plasma ALT compared to vehicle control (DIO-NASH mouse model; [4]): significantly lower
Terminal plasma AST compared to vehicle control (DIO-NASH mouse model; [4]): significantly lower
Liver fibrosis marker Col1A1 (DIO-NASH mouse model; [5]): significant reduction
Liver inflammation marker Gal-3 (DIO-NASH mouse model; [5]): significant reduction
Composite NAS after treatment, all animals (DIO-NASH mouse model; ALT-801 treated DIO-NASH animals, 12 weeks): ≤ 3
Body weight vs. vehicle (DIO-NASH mouse model; daily for 12 weeks, ALT-801 5 and 10 nmol/kg s.c., semaglutide 10 nmol/kg s.c., elafibranor 78 μmol/kg oral, stabilized after 2–3 weeks, n = 11–12): significant (p < 0.001) body weight decreases
Body weight decrease after a single dose (DIO-NASH mouse model; single dose 10 nmol/kg given inadvertently to vehicle animals on day 63): ~ 8%
Blood glucose (db/db mouse model): reduce blood glucose in the diabetic db/db mouse model at least as well as an equivalent dose of semaglutide
Binding to serum albumin (serum albumin): > 99%
